From ChEMBL document CHEMBL2021919, “Computational analysis of structure-based interactions and ligand properties can predict efflux effects on antibiotics” (2012)

Test system: Escherichia coli
Experiment: Ratio of MIC for wild type Escherichia coli JC7623 to MIC for acrAB-deficient Escherichia coli JZM120
Type: functional

SMILES | Ratio
CC(=O)OCC1=C(C(=O)O)N2C(=O)[C@@H](NC(=O)Cc3cccs3)[C@H]2SC1 [CEPHALOTHIN] | 1
CCN1CCN(C(=O)N[C@@H](C(=O)N[C@@H]2C(=O)N3[C@@H]2SC(C)(C)[C@@H]3C(=O)O)c2ccccc2)C(=O)C1=O [PIPERACILLIN] | 16
